Test results as given in ChEMBL document CHEMBL4354866, “TREK Channel Family Activator with a Well-Defined Structure-Activation Relationship for Pain and Neurogenic Inflammation” (J Med Chem, 2020).
Numbering of substitutions follows the chain as printed.

Legend:
[1] = system: T1, Potassium channel subfamily K member 2 (Homo sapiens), O95069 [K286A]; assay: Activation of recombinant human TREK1 K286A mutant expressed in HEK293T cells assessed as increase in K+ current amplitude at 10 uM by whole cell voltage clamp electrophysiological analysis relative to control
T1 sequence (whole entry): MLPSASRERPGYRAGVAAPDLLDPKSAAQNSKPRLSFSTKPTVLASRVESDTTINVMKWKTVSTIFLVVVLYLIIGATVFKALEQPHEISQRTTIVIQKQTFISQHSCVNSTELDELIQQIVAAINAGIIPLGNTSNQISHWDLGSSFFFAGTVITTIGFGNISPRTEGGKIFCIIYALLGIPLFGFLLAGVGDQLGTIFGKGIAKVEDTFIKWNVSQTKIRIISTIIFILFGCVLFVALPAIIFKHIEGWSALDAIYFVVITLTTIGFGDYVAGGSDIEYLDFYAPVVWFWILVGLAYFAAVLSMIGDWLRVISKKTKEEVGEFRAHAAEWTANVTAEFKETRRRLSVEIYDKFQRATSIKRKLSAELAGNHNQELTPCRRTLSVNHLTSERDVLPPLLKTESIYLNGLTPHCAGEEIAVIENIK

[2] = target: T2, Potassium channel subfamily K member 4 (Homo sapiens) (UniProt Q9NYG8); assay: Activation of recombinant human TRAAK expressed in HEK293T cells assessed as increase in K+ current amplitude at 10 uM by whole cell voltage clamp electrophysiological analysis relative to control
T2 sequence (whole entry): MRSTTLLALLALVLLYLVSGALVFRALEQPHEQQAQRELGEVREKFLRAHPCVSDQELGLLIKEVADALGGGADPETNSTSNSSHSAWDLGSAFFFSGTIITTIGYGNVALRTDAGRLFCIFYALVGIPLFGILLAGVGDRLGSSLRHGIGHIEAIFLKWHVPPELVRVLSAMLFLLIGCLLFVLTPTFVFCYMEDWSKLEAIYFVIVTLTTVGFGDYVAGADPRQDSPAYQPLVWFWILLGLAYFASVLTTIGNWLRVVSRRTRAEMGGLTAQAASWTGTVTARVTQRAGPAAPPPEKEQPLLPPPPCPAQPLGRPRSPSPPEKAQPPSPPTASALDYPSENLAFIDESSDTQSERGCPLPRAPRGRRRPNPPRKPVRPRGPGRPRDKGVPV

[3] = target: T3, Potassium channel subfamily K member 2 (Homo sapiens) (UniProt O95069); assay: Activation of recombinant human TREK1 expressed in HEK293T cells assessed as increase in K+ current amplitude at 10 uM by whole cell voltage clamp electrophysiological analysis relative to control
T3 sequence (whole entry): T1 sequence (whole entry) with A286K

[4] = system: T4, Potassium channel subfamily K member 4 (Homo sapiens), Q9NYG8 [D227Y]; assay: Activation of recombinant human TRAAK D227Y mutant expressed in HEK293T cells assessed as increase in K+ current amplitude at 10 uM by whole cell voltage clamp electrophysiological analysis relative to control
T4 sequence (whole entry): T2 sequence (whole entry) with D227Y

[5] = system: T5, Potassium channel subfamily K member 2 (Homo sapiens), O95069 [Y285A]; assay: Activation of recombinant human TREK1 Y285A mutant expressed in HEK293T cells assessed as increase in K+ current amplitude at 10 uM by whole cell voltage clamp electrophysiological analysis relative to control
T5 sequence (whole entry): T1 sequence (whole entry) with Y285A, A286K

[6] = target: T6, TREK-2 two-pore-domain K+ channel (Mus musculus) (UniProt Q3LS20); assay: Activation of recombinant mouse TREK2 expressed in HEK293T cells assessed as increase in K+ current amplitude at 10 uM by whole cell voltage clamp electrophysiological analysis relative to control
T6 sequence (whole entry): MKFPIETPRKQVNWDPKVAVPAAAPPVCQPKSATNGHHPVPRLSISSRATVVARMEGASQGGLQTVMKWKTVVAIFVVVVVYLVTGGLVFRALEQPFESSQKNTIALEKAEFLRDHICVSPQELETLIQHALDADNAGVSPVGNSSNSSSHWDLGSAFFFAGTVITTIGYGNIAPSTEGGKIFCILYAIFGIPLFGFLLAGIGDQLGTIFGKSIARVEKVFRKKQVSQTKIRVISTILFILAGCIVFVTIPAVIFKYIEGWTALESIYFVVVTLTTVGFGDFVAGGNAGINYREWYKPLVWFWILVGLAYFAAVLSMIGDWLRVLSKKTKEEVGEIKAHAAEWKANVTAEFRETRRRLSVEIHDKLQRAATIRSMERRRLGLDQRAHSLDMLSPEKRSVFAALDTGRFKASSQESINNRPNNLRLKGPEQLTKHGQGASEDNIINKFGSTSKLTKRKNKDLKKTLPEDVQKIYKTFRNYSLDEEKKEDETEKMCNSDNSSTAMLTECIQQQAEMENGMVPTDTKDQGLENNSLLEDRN

Cc1ccc2nc(-c3ccc(NC(=O)[C@@H]4CC[C@H](C(=O)O)C4)cc3)sc2c1
fold change (FC) [1]: 4.9 | fold change (FC) [2]: 2.4 to 2.5 | fold change (FC) [3]: 5.7 | fold change (FC) [4]: 5.4 | fold change (FC) [5]: 2 | fold change (FC) [6]: 4.5
